Only a part is listed here, and it is no random draw. The source made the active and inactive calls.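 The calls were made as follows: active = activation above its plate's cutoff, the mean activation of sample wells plus 3 SD; inactive = the rest.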

Amino acid sequences for entries named in this document (tags omitted).
UniProt P08173, whole entry, looked up: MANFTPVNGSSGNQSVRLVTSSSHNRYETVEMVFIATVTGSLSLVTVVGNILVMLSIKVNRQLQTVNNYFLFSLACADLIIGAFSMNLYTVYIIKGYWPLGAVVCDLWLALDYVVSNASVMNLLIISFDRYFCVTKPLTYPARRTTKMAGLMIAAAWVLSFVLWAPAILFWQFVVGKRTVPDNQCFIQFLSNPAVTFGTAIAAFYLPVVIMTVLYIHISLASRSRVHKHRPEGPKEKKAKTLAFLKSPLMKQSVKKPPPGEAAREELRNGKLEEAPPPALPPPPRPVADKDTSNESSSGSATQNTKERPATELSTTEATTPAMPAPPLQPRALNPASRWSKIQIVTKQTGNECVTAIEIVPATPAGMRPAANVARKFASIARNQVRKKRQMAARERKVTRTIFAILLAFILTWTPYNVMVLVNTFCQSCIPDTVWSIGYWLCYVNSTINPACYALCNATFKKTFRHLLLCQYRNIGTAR

For this assay, the target named is Muscarinic acetylcholine receptor M4 (Homo sapiens) (UniProt P08173). Kind of assay: CHRM4 PAMs potentiating acetylcholine calcium signal – CHO-K1 cells, Fluo-8 calcium fluorescence, primary screen (AID 624126). Particulars: CHO-K1 hM4/Gqi5, Fluo-8 calcium fluorescence, ACh EC20; at 3 µM; stronger effect = higher value; 0% = ACh EC20, 100% = maximal ACh.
In the case of `Nc1ccc([As](=O)(O)c2ccc([N+](=O)[O-])cc2)cc1`, the activation was inactive: 3.36%.
The result for `O=C(OC1CN2CCC1CC2)c1cccc(Cl)c1` (centres undefined) reads inactive: -29.1%; that for `CC(C)C(=O)NC(Sc1ccccc1)C(Cl)(Cl)Cl` (centres undefined), inactive: 0.69%; that for `O=P(Nc1nccs1)(c1ccccc1)c1ccccc1`, inactive: 0.97%.
To `c1nnnn1CCn1cnnn1` belongs inactive: 7.12%; to `CCOc1ccc(C2=NCC(CBr)S2)cc1` (centres undefined), inactive: -0.99%.
As to `O=P1(Nc2nc3ccc(Cl)cc3s2)COc2ccccc2O1` (centres undefined), the activation is inactive: 2.89%.
To `CCc1cc(O)c([N+](=O)[O-])c(C)c1[N+](=O)[O-]` belongs inactive: 1.72%; to `CC(C)(C)C(=O)NC(Sc1ccccc1)C(Cl)(Cl)Cl` (centres undefined), inactive: -6.58%.
To `COC(=O)C1(C)COP(=O)(NCc2ccccc2)OC1` (centres undefined) belongs inactive: -2.47%; to `CC1C(=O)OC2CCN3CC=C(COC(=O)C(C)(O)C1(C)O)C23` (centres undefined), inactive: 6.92%.
The result for `CC(=O)c1ccc(N2CC2c2ccncc2)cc1` (centres undefined) reads inactive: 2.7%.
As for `N#C/C(=C\c1ccc(N(CCBr)CCBr)cc1)C(N)=O`, the activation was inactive: -2.08%.
The result for `C[C@H]1OP(=O)(Oc2ccccc2)C[C@@H]2O[C@@H]21` (some centres undefined) reads inactive: 18.8%.
The result for `C[C@@H]1C=CCP(=O)(Oc2ccccc2)O1` (some centres undefined) reads inactive: 5.95%; that for `Cc1ccccc1CN(C)C(=O)COC(=O)C(O)(c1ccccc1)c1ccccc1`, inactive: 4.71%; that for `CCN(CC)CCOC(=O)C(O)(c1ccccc1)c1ccccc1`, inactive: -18.7%.
To `CC(=O)Nc1ccc(Oc2c([N+](=O)[O-])cc([N+](=O)[O-])cc2[N+](=O)[O-])cc1` belongs inactive: 3.99%; to `CC(=O)Nc1ccc([As](=O)(O)O)c(O)c1`, inactive: 7.9%; to `CCNC(=S)/N=C(\N)N[N+](=O)[O-]`, inactive: -4.45%.
As for `O=C(NC1CCS(=O)(=O)C1)NP(=S)(Oc1ccccc1)Oc1ccccc1` (centres undefined), the activation is inactive: -4.09%.
The result for `C=C1C(=O)OC2CCN3CC=C(COC(=O)C(C)(O)C4(CO4)C1C)C23` (centres undefined) reads inactive: -0.29%; that for `Cc1ccc(NP(=O)(Oc2cccc(C)c2)Oc2cccc(C)c2)nc1`, inactive: 3.71%.
For the molecule `c1ccc(-c2nn[nH]n2)c(-c2nn[nH]n2)c1`, the activation is inactive: 11.3%.
The result for `O=P1(N(CCCl)CCCl)OCCC2CCCCN21` (centres undefined) reads inactive: 1.34%.
The result for `CC1C(=O)OC2CCN3CC4OC4(COC(=O)C(C)(O)C1(C)O)C23` (centres undefined) reads inactive: 1.46%.
For `Cc1ccc(OP(=O)(Nc2ccccn2)Oc2ccc(C)cc2)cc1`, the activation is inactive: -2.19%.
To `CC(=O)NC(SC(=S)N(CC(C)C)CC(C)C)C(Cl)(Cl)Cl` (centres undefined) belongs inactive: -2.62%.
The result for `COC(=O)c1cc2c(s1)N=C(c1ccccc1)N(C)P2(=O)N1CCOCC1` (centres undefined) reads inactive: 1.3%.
To `CCC(=O)N1C2C3N(C(=O)CC)C1C1N(C(=O)CC)C(C(N1C(=O)CC)N3C(=O)CC)N2C(=O)CC` belongs inactive: 10.2%; to `Clc1ccc(N2CCN(Cc3c[nH]c4ncccc34)CC2)cc1`, inactive: -3.47%.
Regarding `O=C(OC1CN2CCC1CC2)c1ccccc1` (centres undefined), the activation was inactive: -19.6%.
For `CCN(C(=O)COC(=O)C(O)(c1ccccc1)c1ccccc1)c1c(N)n(Cc2ccccc2)c(=O)[nH]c1=O`, the activation is inactive: 2.42%.
To `O=c1c2cc([N+](=O)[O-])ccc2[nH]c2c([N+](=O)[O-])cc([N+](=O)[O-])cc12` belongs inactive: -1.67%; to `CN(C)C(=O)Oc1noc2ccccc12`, inactive: -0.84%.
Take `CC(NC(=O)COC(=O)C(O)(c1ccccc1)c1ccccc1)c1ccccc1` (centres undefined): the activation was inactive: -6.01%.
Regarding `Cc1ccccc1OP(=O)(Nc1ccccn1)Oc1ccccc1C`, the activation is inactive: -15.4%.
As to `CCCC1OP(N)(=O)OCC1CC` (centres undefined), the activation is inactive: -1.89%.
The result for `CC(=O)O[C@]1(C)C(=O)OC/C2=C/CN(C)CCC(OC(=O)[C@@](O)(C(C)O)C[C@H]1C)C2=O` (some centres undefined) reads inactive: 2.88%; that for `CC(=O)Nc1ccc([As](=O)(O)O)cc1`, inactive: -1.28%; that for `O=C(O)c1ccccc1[As](=O)(O)O`, inactive: -4.44%.
The result for `O=P(Nc1nc2ccc(Cl)cc2s1)(c1ccccc1)c1ccccc1` reads inactive: -14.2%; that for `CN(C)P(=O)(N(C)C)n1c(Nc2ccccc2)nnc1-c1ccccc1`, inactive: 1.84%.
Consider `Cc1ccc(NP(=O)(Oc2ccccc2F)Oc2ccccc2F)nc1`, for which the activation is inactive: -20%.
The result for `CN(C(=O)Cc1ccc(Cl)c(Cl)c1)[C@H]1CCCC[C@@H]1N1CCCC1` reads inactive: -7.79%.
The result for `Cc1cc(SC(NC(=O)c2ccc(F)cc2)C(Cl)(Cl)Cl)ncn1` (centres undefined) reads inactive: -3.3%; that for `CCOP(=O)(Nc1ccccc1)OCC`, inactive: -2.18%.
The result for `CCN(N=Nc1nonc1N)c1nonc1N` reads inactive: -5.83%.
On to `Nc1cccc2ccc([As](=O)(O)O)cc12`, for which the activation is inactive: -11.5%.
The result for `NC(=O)c1cc([N+](=O)[O-])cc([N+](=O)[O-])c1N` reads inactive: 2.41%; that for `Cc1ccc(N/C(=N/P(=O)(N2CCOCC2)N2CCOCC2)N2CCOCC2)cc1`, inactive: 7.2%; that for `CN(C(=O)Cc1ccc(Cl)c(Cl)c1)[C@H]1CCCC[C@H]1N1CCCC1`, inactive: -4.81%.
To `Cc1ccc(OP(=O)(Nc2nccs2)Oc2ccc(C)cc2)cc1` belongs inactive: 7.43%; to `COc1ccccc1OP(=O)(Nc1ccc(C)cn1)Oc1ccccc1OC`, inactive: 0.32%; to `CC(C)[C@H]1C(=O)O[C@@H]2CCN3CC=C(COC(=O)[C@](C)(O)[C@]1(C)O)[C@H]23`, inactive: -7.95%.
Consider `CN1CCCC(OC(=O)C(c2ccccc2)c2ccccc2)C1` (centres undefined), for which the activation is inactive: -15.1%.
In the case of `Clc1ccc(Cl)c(NC2=NCC(CBr)S2)c1` (centres undefined), the activation is inactive: 7.51%.
In the case of `Nc1cc(N)c2nonc2c1[N+](=O)[O-]`, the activation was inactive: -12.6%.
To `CC(C)CC(=O)NC(Sc1ccc(Cl)cc1)C(Cl)(Cl)Cl` (centres undefined) belongs inactive: -2.85%.
The result for `O=C(NC(Sc1ccncn1)C(Cl)(Cl)Cl)c1ccccc1` (centres undefined) reads inactive: 0.17%; that for `Oc1ccccc1CNc1ccccn1`, inactive: 8.26%; that for `O=[N+]([O-])C1C(O)C(O)C([N+](=O)[O-])C(O)C1O` (centres undefined), inactive: 3.24%.
To `COc1ccc(C2=NCC(CBr)S2)cc1` (centres undefined) belongs inactive: 0.2%; to `O=[N+]([O-])c1cccc2n[nH]nc12`, inactive: 8.22%.

For the origin of these results see PubChem BioAssay AID624126 (The Scripps Research Institute Molecular Screening Center, 2012).
